Patent EP4744680A1, “TARGETED CHEMICAL DRUG AND PREPARATION METHOD THEREFOR, PHARMACEUTICAL COMPOSITION, AND USE OF TARGETED CHEMICAL DRUG” (Bai Yao Zhi Da (Beijing) Nanobio Technology Co., Ltd., priority 2023, dated 2025)

What was measured:
A549 lung carcinoma = assay: In-vivo efficacy study in the A549 mouse lung carcinoma model (drug of Example 3); design: species or system mouse (BALB/c-nu); details: Day 25; 0.08mg i.v. (tail vein) twice weekly for 5 weeks
Description: • Species/strain: BALB/c nude (BALB/c-nu) • Age: 6-7 weeks • Sex: Male • Body weight: 16-18 g
The day of implantation was designated as Day 0 (D0).When the tumor volume reached approximately 100.0 mm^3 (D5), animals with poor tumor take were excluded, the remaining animals were randomized by tumor volume, and dosing commenced on the day of randomization. 2).Dosing regimen: Table 31
(§1) Tumor size is measured twice per week using a vernier caliper. The long diameter (a) and short diameter (b) are recorded. Tumor volume is calculated as: V=0.5×a×b^2.
(§2) RTV = Vt /V0 , [formula] where V0 is the tumor volume at grouping/first dosing (D0), and Vt is the tumor volume at each measurement time point.

HepG2 liver cancer = assay: In-vivo efficacy study in the HepG2 mouse liver cancer model (drug of Example 6); design: species or system mouse (BALB/cAnSlacNifdc-nu); details: Day 17; 6 mg/kg (0.12 mg/mouse) i.v. (tail vein) once weekly, 3 administrations
From the text: • Species/strain: BALB/cAnSlacNifdc-nu • Sex: Male • Body weight: 16-18 g
1).Inoculation and grouping: For the HepG2 mouse liver cancer model, male BALB/cAnSlacNifdc-nu nude mice, weighing 16.0-18.0 g, were used.Under aseptic conditions, HepG2 tumor tissue was excised and cut into 2.0mm×2.0mm×2.0mm tumor blocks, which were uniformly implanted subcutaneously into the left axillary dorsal region of nude mice. The day of implantation was designated as Day 0 (D0).When the tumor volume reached approximately 250.0 mm^3 (D7), animals were randomized by tumor volume into three groups: A (control group), B, and C (treatment groups), with 8 animals per group.On the day of randomization, all animals began intravenous (tail-vein) dosing once weekly for a total of 3 administrations. 2.Dosing regimen: Table 37
as §1, §2
6).Tumor weight: At the end of the study (D23), the remaining animals were euthanized by cervical dislocation. Tumors were excised, weighed, and photographed.

COc1cccc2c1C(=O)c1c(O)c3c(c(O)c1C2=O)C[C@@](O)(C(=O)CO)C[C@@H]3O[C@H]1C[C@H](N)[C@@H](O)[C@H](C)O1 [Epirubicin drug substance (API), Epirubicin]
Tumor growth inhibition rate (TGI, %) at different days post-inoculation (A549 lung carcinoma): 28.23%
Tumor growth inhibition rate (TGI, %) at different days post-inoculation (HepG2 liver cancer): 24.38%
